According to ChEMBL document CHEMBL1687729, “Intracellular activity of antibiotics in a model of human THP-1 macrophages infected by a Staphylococcus aureus small-colony variant strain isolated from a cystic fibrosis patient: pharmacodynamic evaluation and comparison with isogenic normal-phenotype and revertant strains” (Antimicrob Agents Chemother, 2009):

Experiments:
Staphylococcus aureus [1] = system: Staphylococcus aureus
Staphylococcus aureus [2] = details: SCV
Staphylococcus aureus [3] = details: SCV, THP-1
Staphylococcus aureus [4] = details: SCV; remark: listed apart in the source
Staphylococcus aureus [5] = details: SCV; remark: listed apart in the source
Staphylococcus aureus [6] = details: SCV, THP-1; remark: listed apart in the source

## GENTAMICIN
Staphylococcus aureus [1]
  MIC: 0.5 mg/L
Staphylococcus aureus [2]
  log10cfu: 3
Staphylococcus aureus [3]
  log10cfu: -0.58
Staphylococcus aureus [4]
  log10CFU/ml: < -4.5
Staphylococcus aureus [5]
  log10CFU/ml: 2.33
Staphylococcus aureus [6]
  log10cfu: 0.63
